The list is not random: actives were taken first. Their share in the collection is about 3.7%.
Nrf2 ARE act – activators of Nrf2 (ARE) signaling | 0.31% of 410,000 active | Potency, µM (highest dose often 46.1 µM), inactives show top-dose activation, most hits filed as activators | AID 624171 | AREc32 ARE-luciferase reporter (MCF7-derived line), luminescence, 24 h; note: potency is the fitted concentration of half-maximal effect; % of control where 0% means no effect; nearly all actives have a fitted effect of over 65% in size
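Reporter line AREc32 (ARE-Fluc), seeded overnight in OPTI-MEM with 5% FBS; compound pin-transferred, 24 hr at 37 deg C, 5% CO2; luminescent read-out.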
miR-21 reporter – miR-21 reporter, rising signal; Potency, µM (top dose mostly 38.3 µM), for the others: at the highest dose reporter change, positive = more light; 340,000 tested, under 10 active; HeLa miR-21 FLuc reporter, luciferase, 48 h; active = well fitted rising curve with a large enough effect; inconclusive = small, poorly fitted or top-dose-only effect; inactive = no such curve, though single readings can be large or run the other way;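 note: % of control where 0% means no effect; miR-21 action dims this reporter so a rising signal means less miR-21 action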
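Using DMEM plus 10% FBS, HeLa miR-21-FLuc cells are incubated with test compounds (final up to about 40uM) for 48 hours; firefly luciferase signal is then imaged following reagent-mediated lysis.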
ClpP mod – qHTS Assay for Activators of ClpP; purified B. subtilis ClpP, FRET peptide cleavage, 20 min; Potency, µM (series often up to 57.5 µM), inactives show at the top dose activity change, negative = active; 1.9% of 340,000 active; active = well fitted falling curve with a large enough effect; inconclusive = small, poorly fitted or top-dose-only effect; inactive = no such curve, though single readings can be large or run the other way; note: potency is the fitted concentration of half-maximal effect; the source files actives as falling curves though it sought activators and does not explain the sign; nearly all actives have a fitted effect of over 65% in size
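FRET quenching reversal measured ClpP activation: 10 microg/mL B. subtilis ClpP at pH 8 with the FRET-FV decapeptide, read at 430 nm after 320 nm excitation. The 20-min minus 0-min signal was scaled between DMSO/no-enzyme wells and ADEP (5.8 microM final).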
IL-2 act – activates IL-2 in a cell-based reporter assay; IL-2 activation reporter assay, cell-based qHTS; stimulated with anti-CD3/CD4/CD28 beads; in transgenic mouse T cells; activation, % (series mostly up to about 46 µM); 0.065% of 360,000 active; AID 652025; in the data active = activation above about 50%; inconclusive = mostly about 30% to 49%; note: 0% is about no effect
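EGFP and DsRed fluorescence is measured by plate cytometry in unstimulated transgenic mouse T cells exposed to compound for 60 minutes, then stimulated 18 hours at 37 degrees C with anti-CD3/anti-CD4 beads plus anti-CD28.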
Nrf2 inh – inhibitors of Nrf2 signaling; 2.1% of 360,000 active; A549 ARE-Fluc reporter, luciferase luminescence, 18-24 h; Potency, µM (highest dose often 46 µM), inactives show top-dose activity change, negative = inhibition, hits mostly inhibitors; note: potency is the fitted concentration of half-maximal effect; % is set by controls: 0 for no effect and ±100 for the full control effect; nearly all actives have a fitted effect of over 60% in size
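Nrf2 function is reported as luminescence of an ARE-controlled luciferase in A549 cells. Compounds were tested at several concentrations, and a CellTiter-Fluor read on the same wells flagged cytotoxicity.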
A549 tox-1 – A549 cytotoxicity, counter-screen for Nrf2 inhibitors | A549 ARE-Fluc cells, CellTiter-Fluor viability, 18-24 h | Potency, µM (series often up to 46 µM), for the others: at the highest dose activity change, negative = cytotoxicity, most hits filed as inhibitors | 0.16% of 390,000 active; note: potency is the fitted concentration of half-maximal effect; % is set by controls: 0 for no effect and ±100 for the full control effect
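A549 ARE-Fluc cells in 5% FBS OPTI-MEM, 5000 cells/well, rested 2 h then exposed to compounds in concentration-response for 18-24 h at 37 °C. Viability by CellTiter-Fluor fluorescence (Ex 405/Em 525) after 30 min; luciferase luminescence (BugLite, 15 min, RT) read afterwards.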
FLuc enzyme inh – counter-screen for Nrf2 inhibitors: firefly luciferase enzyme inhibition | shares compounds with Nrf2 inh | purified firefly luciferase, luminescence inhibition | Potency, µM (series often up to 57.5 µM), inactives show top-dose activity change, negative = inhibition, usual class: inhibitors | 4% of 1,400 active; note: potency is the fitted concentration of half-maximal effect; % is set by controls: 0 for no effect and ±100 for the full control effect; nearly all actives have a fitted effect of over 65% in size
A549 tox-2 – toxic to A549 ARE-Fluc cells in Nrf2 counterscreen; A549 ARE-Fluc cells, cytotoxicity counterscreen; AID 720523; 2% of 1,400 active; Potency, µM (titrated, usually from 46.1 µM), without a hit: top-dose activity change, negative = cytotoxicity, actives largely listed as inhibitors; shares compounds with Nrf2 inh;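 note: potency is the fitted concentration of half-maximal effect; cells exposed to compounds for 18 to 24 hours; % is set by controls: 0 for no effect and ±100 for the full control effect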
Nrf2 ARE inh – Nrf2 inhibition confirmed, A549 ARE-luciferase; shares compounds with Nrf2 inh; A549 ARE-firefly luciferase reporter, luminescence; Potency, µM (series often up to 46.1 µM), for the others: at the top dose activity change, negative = inhibition, hits mostly inhibitors; 74% of 1,400 active; AID 720524; note: potency is the fitted concentration of half-maximal effect; % is set by controls: 0 for no effect and ±100 for the full control effect; nearly all actives have a fitted effect of over 65% in size
ClpP inh valid – validation of B. subtilis ClpP protease hits (inhibitors); shares compounds with ClpP mod; purified B. subtilis ClpP, FRET-FV substrate cleavage, 20 min; Potency, µM (titrated, usually from 57.5 µM), for inactives: at the top dose activity change, negative = inhibition, actives largely listed as inhibitors; 40% of 470 active; note: potency is the fitted concentration of half-maximal effect; % is set by controls: 0 for no effect and ±100 for the full control effect; nearly all actives have a fitted effect of over 70% in size
Starred values were filed as active, the others as inactive; ? = inconclusive; . = no result shown; [ ] = dose if it differs, or a comment. Unless noted, calls come from the whole dose curve; as a rule, active = well fitted curve in the direction sought with a large enough effect; inconclusive = small, poorly fitted or top-dose-only effect, or another doubt; inactive = no such curve, though single readings can be large; an effect the other way counts as inactive or inconclusive.

SMILES	Nrf2 ARE act	miR-21 reporter	ClpP mod	IL-2 act	Nrf2 inh	A549 tox-1	FLuc enzyme inh	A549 tox-2	Nrf2 ARE inh	others
CCOC(=O)N1CCN(C(=O)Cn2ncc3c4ccccc4n(Cc4ccc(F)cc4)c3c2=O)CC1	-0.2%	?	3.7%	.	?	-17.1%	.	.	.
COc1ccc(NC(=O)CN2C(=O)CN=C(c3ccccc3)c3ccccc32)c(OC)c1	1.0%	-0.9%	1.3%	.	.	6.0%	.	.	.
Cc1[nH]c2ccccc2c1C(=O)CN1CC=C(c2ccccc2)CC1	0.0%	6.1%	0.9%	-0.2	?	-14.9%	.	.	.
CCN1CC=C(c2c[nH]c3ccccc23)CC1	0.5%	-0.7%	-16.3%	-0.7	1.3µM*	?	-28.5%	?	0.0326µM*
COC(=O)c1ccc2ccn(CC(=O)NC(C)C)c2c1	0.1%	-0.9%	?	-2.9	5.5%	1.4%[1.84 µM]	.	.	.
CC[C@@]1(O)C(=O)OCc2c1cc1n(c2=O)Cc2cc3c(N)cccc3nc2-1	-2.8%	?	4.6%	0.5	0.651µM*	?	-9.2%	?	0.259µM*
CCCCCn1c(=O)c(C(=O)Nc2cnccn2)c(O)c2ccccc21	3.4%	-3.0%	.	-0.8	4.61µM*	?	1.1%	?	5.8µM*
CCCCCn1c(=O)c(C(=O)Nc2cc(C)ccn2)c(O)c2ccccc21	0.0%	-19.0%	-7.2%	0.6	2.7%	-0.7%	.	.	.
CCCCCCCn1c(=O)c(C(=O)Nc2cnccn2)c(O)c2ccccc21	7.5%	-3.9%	.	-2.1	4.11µM*	?	1.4%	?	.
CCCCCCn1c(=O)c(C(=O)Nc2ncccc2C)c(O)c2ccccc21	2.9%	13.5%	-27.6%	-0.6	8.2µM*	-22.6%	-0.1%	-13.7%	?
CCOC(=O)c1ccccc1OC(=O)NNc1ccccc1	-0.2%	.	.	-0.2	?	1.6%	.	.	.
COc1ccc(C(=O)CN2CCOCC2)cc1	.	.	-3.3%	.	.	.	.	.	.
CN(CCc1ccccn1)Cc1ccc(Cl)cc1	0.3%	-3.1%	0.3%	0.4	?	?	.	.	.
Cc1cc(S(=O)(=O)NC(C)C)ccc1OCC(=O)N1CCN(Cc2ccc3c(c2)OCO3)CC1	3.3%	21.8%	-2.1%	-1.9	9.2µM*	-28.6%	-1.9%	-3.4%	-23.6%
CC(C)NS(=O)(=O)c1ccc(OCC(=O)N2CCN(Cc3ccc4c(c3)OCO4)CC2)c(Cl)c1	2.5%	20.9%	-2.3%	-2.1	?	-16.3%	.	.	.
S=c1[nH]nc(-c2ccn[nH]2)n1-c1ccccc1Cl	2.3%	-36.7%	-5.3%	-0.4	?	12.1%	.	.	.
C[C@H]1CC[C@@H]2[C@@H](C)[C@H]3[C@H](C[C@H]4[C@@H]5CC=C6C[C@@H](O[C@@H]7O[C@H](CO)[C@H](O)[C@H](O[C@@H]8O[C@H](CO)[C@@H](O)[C@H](O)[C@H]8O)[C@H]7O[C@@H]7O[C@@H](C)[C@H](O)[C@@H](O)[C@H]7O)CC[C@]6(C)[C@H]5CC[C@]34C)N2C1	-3.3%	4.9%	0.4%	-0.5	-21.5%	-17.5%	.	.	.
C[C@@H]1O[C@@H](O[C@H]2C[C@@H](O)[C@]3(CO)[C@@H]4C(CC[C@]3(O)C2)[C@@]2(O)CC[C@H](C3COC(=O)C3)[C@@]2(C)C[C@H]4O)[C@H](O)[C@H](O)[C@H]1O (stereo not given in full)	-2.0%	.	-2.2%	0.7	0.206µM*	?	0.3%	?	1.16µM*
COC1C(O)C(C)OC(OC2CCC3(C)C(CCC4C3C(O)CC3(C)C(C5=CC(=O)OC5)CCC43O)C2)C1O (stereo not given)	-1.9%	.	-1.3%	0.5	0.146µM*	?	1.2%	?	0.116µM*
CNC(=O)Nc1ccc(C(=O)N/N=C\C23CC[C@@H](O)CC2(O)CC[C@@H]2[C@@H]3CCC3(C)C(C4=CC(=O)OC4)CCC23O)cc1 (stereo not given in full)	-1.0%	?	-1.7%	-0.8	?	-16.2%	.	.	.
CC1OC(O[C@H]2C[C@@H](O)[C@]3(CO)[C@H]4[C@H](O)C[C@]5(C)[C@@H](C6=CC(=O)OC6)CC[C@]5(O)[C@@H]4CC[C@]3(O)C2)C(O)C(O)C1O (stereo not given in full)	.	.	0.5%	.	.	.	3.7%	?	0.0366µM*
CN(N=O)c1cc(O)ccc1O	.	.	.	.	-5.8%	?	.	.	.
O=C(CCCCCCCCCCC(=O)NCc1cccnc1)NCc1cccnc1	0.2%	9.1%	.	1.7	?	-1.1%	3.7%	-5.5%	?
O=C(NCc1cccnc1)Nc1ccccc1Cl	-0.2%	-6.5%	-2.0%	-0.4	4.6%	4.9%	.	.	.
CC[C@@H](C)[C@H](C(CC(=O)N1CCCC1[C@@H](OC)[C@H](C)C(=O)N[C@H](Cc1ccccc1)c1nccs1)OC)N(C)C(=O)[C@H](NC(=O)[C@@H](C(C)C)N(C)C)C(C)C (stereo not given in full)	0.6%	.	-2.3%	-5.2	?	?	.	.	.
C[n+]1c2cc(N)ccc2cc2ccc(N)cc21	-2.2%	.	-2.8%	1.3	1.46µM*	?	-12.6%	86.2%	1.64µM*
Cc1ccc2c(c1)C(=O)CC1(CCC(C(C)(C)C)CC1)O2 (stereo not given)	-0.4%	1.7%	?	-0.1	-13.5%	1.7%	.	.	.
CCCNC(=O)c1cnn2c(C)c(Cc3c(C)cc(C)cc3C)c(C)nc12	0.4%	20.1%	10µM*	.	.	-15.3%	.	.	.	ClpP inh valid=-1.1%
Cc1ccccc1Cn1cccc(C(=O)Nc2cc(Cl)ccc2C#N)c1=O	?	0.7%	66.6%	.	.	13.2%	.	.	.
Cc1ccccc1C(=O)Nc1cc(-c2ccc(Cl)cc2)nn1-c1ccccc1	0.1%	-14.0%	144.9%	.	.	7.7%	.	.	.	ClpP inh valid=-28.9%

Part of the list above in order of count of non-hydrogen atoms, descending.
SMILES	Nrf2 ARE act	miR-21 reporter	ClpP mod	IL-2 act	Nrf2 inh	A549 tox-1	FLuc enzyme inh	A549 tox-2	Nrf2 ARE inh	others
COc1ccc(NC(=O)CN2C(=O)CN=C(c3ccccc3)c3ccccc32)c(OC)c1	1.0%	-0.9%	1.3%	.	.	6.0%	.	.	.
CCCCCCn1c(=O)c(C(=O)Nc2ncccc2C)c(O)c2ccccc21	2.9%	13.5%	-27.6%	-0.6	8.2µM*	-22.6%	-0.1%	-13.7%	?
CCCNC(=O)c1cnn2c(C)c(Cc3c(C)cc(C)cc3C)c(C)nc12	0.4%	20.1%	10µM*	.	.	-15.3%	.	.	.	ClpP inh valid=-1.1%
